Our source for the Potency values is PubChem BioAssay AID686978 (National Center for Advancing Translational Sciences (NCATS), 2013).

Structures are written as SMILES. Where “and” joins values, the source holds several entries; their conditions need not be identical. Identical values can stand only once. The entries are a selection whose mix differs from that of the whole data set. Inconclusive results are not listed. More than one record can exist for a structure, and the calls need not agree. Entries that show only a call come without a potency. Calls of active or inactive are those of the source. Calls come from the whole dose curve; as a rule, active = well fitted inhibition curve with a large enough effect; inconclusive = small, poorly fitted or top-dose-only effect; inactive = flat fitted curve, though single readings scatter.
Potency is the fitted concentration of half-maximal effect.

This assay in a line: qHTS for Inhibitors of human tyrosyl-DNA phosphodiesterase 1 (TDP1): qHTS in cells in absence of CPT. Note: nearly all actives have a fitted effect of over 55% in size. The settings on record: DT40 Tdp1-/- hTDP1 cells, no CPT, ATP luminescence, 48 h; series mostly up to 46.2 µM. In general terms: In qHTS, concentration-response curves come from the screen itself.
Consider `CN(C(=O)Cc1ccccc1)[C@@H]1CC[C@]2(CCCO2)C[C@H]1N1CCCC1`, for which the Potency entry was “inactive”. The same measure for `CCOP1(=S)c2c(C)nn(CCC#N)c2N=C(c2ccc(F)cc2)N1C` (stereo not given): “inactive”; for `Nc1ccccc1[As](=O)(O)c1ccccc1`: “inactive”; for `O=C(O)COc1ccc([As](=O)(O)O)cc1[N+](=O)[O-]`: “inactive”. Regarding `O=P(Nc1nccs1)(Oc1ccccc1)Oc1ccccc1`, the Potency entry was “inactive”. The entry for `COc1cc(C2NCCC3(OCCO3)C2(C)C)cc(OC)c1OC` (stereo not given) is “inactive”. The entry for `CCCOP(=S)(Nc1nc(N)cc(=O)[nH]1)OCCC` is “inactive”.

With `Nc1cccc2c([As](=O)(O)O)cccc12`, the Potency result is “inactive”. As for `Cc1ccc(NCCc2c([N+](=O)[O-])cc([N+](=O)[O-])cc2[N+](=O)[O-])cc1`, the Potency was active: 18.4 µM.

Regarding `Cc1cccc(OCC(=O)OC2CN3CCC2CC3)c1` (stereo not given), the Potency entry is “inactive”. In the case of `O=[As](O)(c1cccc(O)c1)c1cccc(O)c1`, the Potency entry was “inactive”.

As for `CS(=O)(=O)c1ccc(Cl)c(NC(=O)COC(=O)C(O)(c2ccccc2)c2ccccc2)c1`, the Potency entry was “inactive”.

Regarding `O=[As](O)(O)c1cccnc1`, the Potency result is “inactive”. In the case of `COc1cc(C(=O)NCC2(N3CCOCC3)CCCCC2)cc(Cl)c1OC(C)C`, the Potency is active: 13 µM. Take `O=C(OC1CN2CCC1CC2)c1ccc(Cl)cc1` (stereo not given): the Potency entry was “inactive”. Regarding `CC1(CBr)Cn2c(nc3ccccc3c2=O)S1` (stereo not given), the Potency is active: 18.4 µM. The same measure for `CC(C)/C=N\N=C(\N)N[N+](=O)[O-]`: “inactive”; for `COc1ccccc1CNC(=O)COC(=O)C(O)(c1ccccc1)c1ccccc1`: “inactive”; for `O=P1(N(CCCl)CCCl)NCCC(C(F)(F)F)O1` (stereo not given): “inactive”. Consider `Clc1n[nH]nc1-c1nn[nH][15n]1`, for which the Potency result was “inactive”. With `CCOP(=O)(Nc1ccc(C)cn1)OCC`, the Potency result is “inactive”.

As to `CN(CCCl)Cc1cc(Cl)c(NC2=NCCN2)c(Cl)c1`, the Potency entry was “inactive and active: 5.17 µM”. In the case of `O=P1(Nc2ccccn2)COc2ccccc2OC1`, the Potency result was “inactive”. The figure for `CCC1=CC2Cc3nc4ccc(Cl)cc4c(N)c3C(C1)C2` (stereo not given) is active: 9.2 µM; for `O=[As](O)(c1cccs1)c1cccs1` it is “inactive”; for `Cc1ccc(OCC(=O)OC2CN3CCC2CC3)cc1` (stereo not given) it is “inactive”.

Regarding `NS(=O)(=O)c1cccc(NC(=O)COC(=O)C(O)(c2ccccc2)c2ccccc2)c1`, the Potency was active: 4.11 µM. The same measure for `Nc1cccc([As](=O)(O)c2ccccc2)c1`: “inactive”.

Turning to `O=P1(Nc2ncccn2)COc2ccccc2OC1`, the Potency entry is “inactive”. The entry for `CCCC1OP(=O)(Nc2ccccc2)OCC1CC` (stereo not given) is “inactive”. On to `CN(C)C1(CNC(=O)c2ccc(S(C)(=O)=O)cc2)CCCCC1`, for which the Potency entry was “inactive”.

In the case of `CC1CCC(C(C)C)C(OP(=O)(Nc2ccccn2)c2ccccc2)C1` (stereo not given), the Potency is active: 18.4 µM. The same measure for `Cc1ccc(C(=O)OC2CN3CCC2CC3)cc1` (stereo not given): “inactive”. The figure for `COc1cc([N+](=O)[O-])ccc1[N+](=O)[O-]` is active: 6.31 µM; for `Cc1nn(-c2ccccc2)c2c1P(=O)(N1CCOCC1)N(C)C(c1ccccc1)=N2` (stereo not given) it is “inactive”.
